Experimental data published in patent US11583516B2, “Dash inhibitors, and uses related thereto” (Trustees of Tufts College, priority 2016, dated 2023).

How the values were obtained:
Format in all cases: cell-based
RAW 264.7 WT cells = assay: Pyroptosis IC50 in cells
NB4 cells = assay: Cell line drug sensitivity (CellTiter-Glo); conditions: NB4, AML/APL M3; 48 h
Experimental: (§1) SET-2, RS4;11, and SKM-1 cells were purchased from DSMZ. HL-60, MV4;11, OCI-AML2, NB4, MOLM-13, NOMO-1, DAOY, HEL, IMR-5, K562, Kasumi-1, ONS-76, RDES-1, and TC-71 cells were a gift from Alex Kentsis and verified using STR genotyping (Genetica). […] MCF-7, Jurkat, THP-1, U937, HL-60, MV4;11, OCI-AML2, NB4, MOLM-13, NOMO-1, HEL, K562, SET-2, RS4;11, SKM-1 and Kasumi-1 were grown in RPMI-1640 medium with 10% FBS. All cells were grown at 37° C. in a 5% CO2 incubator. Cell lines were tested for mycoplasma using the MycoAlert Mycoplasma Detection Kit (Lonza).
(§2) Cells were plated (2000 cells/well) in white, 384-well clear bottom plates using an EL406 Microplate Washer/Dispenser (BioTek) in 25 μL final volume of media. Compounds were added using a pintool (CyBio) and cells were incubated for 48 h at 37° C. Assay plates were then removed from the incubator and allowed to equilibrate to room temperature on the bench top before addition of 10 μL of CellTiter-Glo reagent (Promega) according to the manufacturer's instructions. Assay plates were shaken on an orbital shaker for 2 minutes and incubated at room temperature on the bench top for 10 minutes. Luminescence was then read using a Cytation 5 Cell Imaging Multi-Mode Reader (BioTek). (FIG. 6)

MV4;11 cells = assay: Cell line drug sensitivity (CellTiter-Glo); conditions: MV4;11, AML M5; 48 h
Experimental: as §1, §2

IC50 (RAW 264.7 WT cells): 14 nM
IC50 (MV4;11 cells): 14 nM
SMILES: CC(C)(C)[C@H](N)C(=O)N1CCC[C@H]1B(O)O [ARI-4175, t-butylglycine-boroProline]
IC50 (NB4 cells): 14 nM
